# Apparent affinities of Ab-14 variants for a coronavirus HR2 peptide

All variants were tested on one target, the spike HR2 peptide PDVDLGDISGINAS (SARS-CoV-2).

Parent: Ab-14, a human scFv built as VH, a 15-residue (Gly4Ser)3 linker, VL. Only the CDRs of the heavy chain vary.
VH: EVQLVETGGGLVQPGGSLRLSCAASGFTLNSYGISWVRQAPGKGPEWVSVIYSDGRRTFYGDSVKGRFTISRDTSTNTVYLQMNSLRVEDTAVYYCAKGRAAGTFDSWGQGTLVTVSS
VL: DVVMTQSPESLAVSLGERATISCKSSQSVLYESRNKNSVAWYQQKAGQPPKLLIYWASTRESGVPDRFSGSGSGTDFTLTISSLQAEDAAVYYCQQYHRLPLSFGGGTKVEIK

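The library (AAYL49) carries one to three amino acid substitutions per variant, with no insertions or deletions. The assay is AlphaSeq: two haploid yeast populations carry antibody and antigen on their surface. Mating (16 h, 30 °C) was followed by selection of diploids and sequencing of their barcodes. Read counts were normalised to the haploid input and turned into Kd by a linear fit to BCL2-family pairs of known affinity, for each replicate. The assay was run in three technical replicates.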

Sequences are complete VH domains. Scale: log10 of Kd in nM, estimated from mating counts; low values are strong binders. Replicates are averaged; those with no signal do not enter the mean. Where no diploid with the target was found in any replicate, the entry reads "nd": below detection, most likely a poor binder, though not proof of it. Order: sorted from the lowest average up, undetected variants last. Three control strains display no target. For library AAYL49, 15% of the pairings with them gave a signal, with a median of 4.06 and one signal in twenty below 2.83, so weak values seen in few replicates may be background.

1.04 (3 of 3 replicates): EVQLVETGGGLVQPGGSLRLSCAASGFSLNSYGISWVRQAPGKGPEWVSVIYSDGCRTFYGDSVKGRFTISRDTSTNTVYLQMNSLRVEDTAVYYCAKGRAAGTFDDWGQGTLVTVSS.
1.87 (3 of 3 replicates): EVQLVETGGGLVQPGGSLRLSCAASGFTLNSYGISWVRQAPGKGPEWVSVIYSDGRRTGYGDEVKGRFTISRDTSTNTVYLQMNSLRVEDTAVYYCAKGRAYGTFDSWGQGTLVTVSS.
2.25 (3 of 3 replicates): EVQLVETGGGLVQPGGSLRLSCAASGFTLNYYGISWVRQAPGKGPEWVSVIYSDGRRTFYGDSVKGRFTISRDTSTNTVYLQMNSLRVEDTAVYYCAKGRTAGLFDSWGQGTLVTVSS.
3.10 (3 of 3 replicates): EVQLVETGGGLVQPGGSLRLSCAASGFTLNSYGISWVRQAPGKGPEWVSVIYSDGRRTFYGDHAKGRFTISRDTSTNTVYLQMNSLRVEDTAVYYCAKGRALGTFDSWGQGTLVTVSS.
3.33 (3 of 3 replicates): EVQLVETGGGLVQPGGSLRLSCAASGFTLNSYGISWVRQAPGKGPEWVSCIYSDGRRTFYGDSVKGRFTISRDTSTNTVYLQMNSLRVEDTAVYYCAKGNHAGTFDSWGQGTLVTVSS.
3.35 (1 of 3 replicates): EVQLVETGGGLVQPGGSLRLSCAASGFTLNSMGISWVRQAPGKGPEWVSVIVSDGRRTFNGDSVKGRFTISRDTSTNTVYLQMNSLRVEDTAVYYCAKGRAAGTFDSWGQGTLVTVSS.
3.68 (2 of 3 replicates): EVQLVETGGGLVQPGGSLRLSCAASGFTLNSYGISWVRQAPGKGPEWVSVIASDGRRTGYGDSVKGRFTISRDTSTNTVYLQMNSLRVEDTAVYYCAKGRAAGTDDSWGQGTLVTVSS.
4.23 (1 of 3 replicates): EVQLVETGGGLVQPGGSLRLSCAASGFTLNSYGISWVRQAPGKGPEWVSVIYSDGYNTFYGDSHKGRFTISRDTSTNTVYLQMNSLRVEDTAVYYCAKGRAAGTFDSWGQGTLVTVSS.
4.85 (1 of 3 replicates): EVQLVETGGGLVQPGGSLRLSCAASGFTLNSYGISWVRQAPGKGPEWVSVIYMDGRRTFYGDSVNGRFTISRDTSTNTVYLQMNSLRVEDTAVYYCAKGRAAGTFDSWGQGTLVTVSS.
5.53 (1 of 3 replicates): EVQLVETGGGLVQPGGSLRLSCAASRFTLNSYGISWVRQAPGKGPEWVSVIYFDGRFTFYGDSVKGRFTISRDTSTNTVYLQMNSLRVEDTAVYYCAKGRAAGTFDSWGQGTLVTVSS.
nd (0 of 3 replicates): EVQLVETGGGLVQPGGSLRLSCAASGFTLNEYGISWVRQAPGKGPEWVSVIYSDGRRTFYGDSVNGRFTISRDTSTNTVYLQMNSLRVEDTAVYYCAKGRAAGTFWSWGQGTLVTVSS.
nd (0 of 3 replicates): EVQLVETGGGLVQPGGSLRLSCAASGFTLNLYGISWVRQAPGKGPEWVSVIYSDNRRTQYGDSVKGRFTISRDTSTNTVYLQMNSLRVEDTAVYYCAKGRAAGTFDSWGQGTLVTVSS.
nd (0 of 3 replicates): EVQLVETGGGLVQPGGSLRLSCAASGFTLNSYDISWVRQAPGKGPEWVSVIDSDGRRYFYGDSVKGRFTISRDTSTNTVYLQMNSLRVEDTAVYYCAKGRAAGTFDSWGQGTLVTVSS.
nd (0 of 3 replicates): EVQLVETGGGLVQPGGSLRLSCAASGFTLNAYGISWVRQAPGKGPEWVSVIYSDGRRTFGGDSVKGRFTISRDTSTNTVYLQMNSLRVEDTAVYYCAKGRAAMTFDSWGQGTLVTVSS.
nd (0 of 3 replicates): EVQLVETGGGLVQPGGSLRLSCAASGATLNSYGFAWVRQAPGKGPEWVSVIYSDGRRTFYGDSVKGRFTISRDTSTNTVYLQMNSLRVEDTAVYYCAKGRAAGTFDSWGQGTLVTVSS.
nd (0 of 3 replicates): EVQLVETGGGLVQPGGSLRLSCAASDFTLNSYGISWVRQAPGKGPEWVSVHYSFGRRTFYGDSVKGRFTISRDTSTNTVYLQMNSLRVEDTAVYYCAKGRAAGTFDSWGQGTLVTVSS.
nd (0 of 3 replicates): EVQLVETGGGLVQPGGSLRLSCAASGFTLNYYGISWVRQAPGKGPEWVSVIYSDSRRTFYGDSSKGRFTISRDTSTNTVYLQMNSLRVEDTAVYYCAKGRAAGTFDSWGQGTLVTVSS.
nd (0 of 3 replicates): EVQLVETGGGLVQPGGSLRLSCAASGFTLNSYKISWVRQAPGKGPEWVSVIYSGGRRTFYPDSVKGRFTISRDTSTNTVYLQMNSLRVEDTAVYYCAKGRAAGTFDSWGQGTLVTVSS.
nd (0 of 3 replicates): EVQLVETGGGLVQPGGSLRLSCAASGFTLNSYGISWVRQAPGKGPEWVSAIYADGRRTFYGDSVKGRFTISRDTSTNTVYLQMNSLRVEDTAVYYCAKERAAGTFDSWGQGTLVTVSS.
nd (0 of 3 replicates): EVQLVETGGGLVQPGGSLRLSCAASGFTLNSYGISWVRQAPGKGPEWVSSIYSDGRRTFYGLSEKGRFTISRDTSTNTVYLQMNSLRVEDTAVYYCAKGRAAGTFDSWGQGTLVTVSS.
nd (0 of 3 replicates): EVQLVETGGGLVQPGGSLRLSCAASGFTLNSYGASWVRQAPGKGPEWVSWIYSDMRRTFYGDSVKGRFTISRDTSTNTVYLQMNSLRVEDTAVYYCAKGRAAGTFDSWGQGTLVTVSS.
nd (0 of 3 replicates): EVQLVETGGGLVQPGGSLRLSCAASGFNLNNYGISWVRQAPGKGPEWVSVIYSDGRRTFYGDSVKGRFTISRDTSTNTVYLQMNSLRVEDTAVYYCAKGRAAGTFHSWGQGTLVTVSS.

Top 2 of the variants detected in all replicates, tightest first:

{"VH": "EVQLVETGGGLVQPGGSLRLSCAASGFSLNSYGISWVRQAPGKGPEWVSVIYSDGCRTFYGDSVKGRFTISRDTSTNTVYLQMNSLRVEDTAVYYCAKGRAAGTFDDWGQGTLVTVSS", "mean, log10 nM": "1.04", "seen in": "3 of 3"}
{"VH": "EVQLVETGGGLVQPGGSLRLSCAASGFTLNSYGISWVRQAPGKGPEWVSVIYSDGRRTGYGDEVKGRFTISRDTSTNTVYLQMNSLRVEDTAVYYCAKGRAYGTFDSWGQGTLVTVSS", "mean, log10 nM": "1.87", "seen in": "3 of 3"}

Parent in this assay: reference entry 0.65, copy in this library 4.11 (one replicate of three).

Values reported by Engelhart et al. 2022, doi:10.1038/s41597-022-01779-4 (FLAb copy).